The values that follow come from patent US4968539A, “Liquid crystal membrane” (Lion Corporation, priority 1987, dated 1990).

The nature of series [1]: Cumulative amount of isosorbide dinitrate permeated through membrane with intermittent heating, vertical-type diffusion cell. The settings on record: heating and cooling at intervals of 2 h; TPS-303 membrane.
Series [2] in a line: Isosorbide dinitrate concentration in rabbit blood, drug reservoir with heat generation sheet.
Series [3] in a line: Cumulative amount of isosorbide dinitrate permeated through membrane and hairless rat skin with intermittent heating. The conditions noted are these: heating to 38° C and cooling at intervals of 6 h; TPS-303 membrane.

For the compound `O=[N+]([O-])O[C@H]1CO[C@H]2[C@@H]1OC[C@H]2O[N+](=O)[O-]`, the “Drug delivery pattern (cumulative amount of the permeated drug, FIG. 3)” value in series [1] is given as “the drug delivery pattern can be regulated suitably by controlling the temperature of the heat generation system”. Moreover, the Concentration in blood in series [2] (10 hr (after heating 0 to 10 h)) was 280 ng/mL; in series [2] (20 hr (after leaving to cool)), 135 ng/mL; in series [2] (30 hr (after heating 20 to 30 h)) it was 302 ng/mL; in series [2] (40 hr (after leaving to cool)), 158 ng/mL. Moreover, the “Permeation pattern of the drug through the skin (cumulative amount, FIG. 4)” value in series [3] was “the permeation pattern of the drug through the skin can be regulated suitably by controlling the temperature of the heat generation system”.
